The nature of one data set: physchem. The settings on record: water (aqueous).
Data set [1] in a line: in vitro. The note with it: Sprague-Dawley, rat, liver microsomes.
Data set [2] can be described thus: in vitro. The note with it: Sprague-Dawley, rat, liver microsomes. The source holds these as a separate data set. A general note: Microsomes from liver hold many membrane-bound enzymes, among them those of drug oxidation.
Data set [3] concerns the target T1, Retinoic acid receptor RXR-beta (Homo sapiens, UniProt P28702).
T1 sequence (P28702 whole entry): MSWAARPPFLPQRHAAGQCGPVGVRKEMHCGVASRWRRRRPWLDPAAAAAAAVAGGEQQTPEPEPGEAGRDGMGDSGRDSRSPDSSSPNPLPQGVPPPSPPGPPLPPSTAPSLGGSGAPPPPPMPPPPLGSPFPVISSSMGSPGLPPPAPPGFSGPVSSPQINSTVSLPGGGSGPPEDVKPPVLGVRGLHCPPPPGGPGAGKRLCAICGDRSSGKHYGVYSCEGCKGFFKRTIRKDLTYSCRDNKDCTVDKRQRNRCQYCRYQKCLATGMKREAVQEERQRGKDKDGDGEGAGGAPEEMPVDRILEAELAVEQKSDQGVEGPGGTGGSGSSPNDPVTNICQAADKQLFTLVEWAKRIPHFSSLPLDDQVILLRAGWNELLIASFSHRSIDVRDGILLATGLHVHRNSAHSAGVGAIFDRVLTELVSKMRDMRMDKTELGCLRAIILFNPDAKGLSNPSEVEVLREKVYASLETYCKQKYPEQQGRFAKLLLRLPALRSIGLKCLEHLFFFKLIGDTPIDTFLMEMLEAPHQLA

These results are taken from ChEMBL document CHEMBL5537189 (J Med Chem, 2024).

≈ marks a conversion by molar mass, not a printed value. A value given as a limit tells only on which side of the number the result lay.

Regarding `CC1(C)CCN(c2cc(Cl)nc(OCCC(=O)O)n2)c2ccccc21`, the solubility (as a rule, the concentration that dissolves in the medium under given conditions) at 24 h in the data set “physchem” is 84 µg/mL (≈ 232 µM). Further, the share remaining (in general, what is left of the initial amount, in per cent) at 1 h, 10 µM in “in vitro [1]” was determined as 79%. The half-life (as a rule, the time needed for the level to fall by half in the phase considered) at 10 µM in the data set “in vitro [2]” was greater than 2 h.
`CC1CCc2ccccc2N1c1cc(Cl)nc(OCCC(=O)O)n1` (stereo not given) showed a solubility at 24 h in “physchem” of 39 µg/mL (≈ 112 µM). For the same compound, the affinity in data set [3], expressed as Kd, was 5 µM.
